## Apparent affinities of Ab-14 variants for a coronavirus HR2 peptide

Values reported by Li et al. 2023, doi:10.1038/s41467-023-39022-2 (FLAb copy).

Antigen: PDVDLGDISGINAS, a 14-residue peptide of the SARS-CoV-2 spike HR2 region.

The variants keep the light chain, the linker and the frameworks of Ab-14 (scFv order VH, three GGGGS repeats, VL).
VH: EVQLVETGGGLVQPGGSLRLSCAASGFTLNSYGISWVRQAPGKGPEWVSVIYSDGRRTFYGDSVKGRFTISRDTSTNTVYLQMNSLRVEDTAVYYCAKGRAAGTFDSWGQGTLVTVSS
VL: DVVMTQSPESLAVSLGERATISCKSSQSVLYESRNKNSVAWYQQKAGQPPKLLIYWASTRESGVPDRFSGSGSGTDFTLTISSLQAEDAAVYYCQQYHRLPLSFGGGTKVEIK

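Designed CDR sequences, proposed from the first random library and measured here. Group labels follow the data file (Rand: our label for a block that the file lists under HC and that is probably the random mutants of the ten best first-round binders; En: ensemble of fine-tuned language models; HC: hill climbing; Gen: genetic algorithm; Gibbs: Gibbs sampling; a sequence that several methods proposed may carry one label only). Affinity was read by AlphaSeq, a pooled yeast mating assay with surface-displayed partners. After mating in shaken culture at 30 °C for 16 h, diploids were selected and their barcode pairs sequenced. A regression on co-assayed BCL2-family reference pairs converts the normalised counts of each replicate to an apparent Kd. There are six technical replicates.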

Each variant is given by its three heavy chain CDRs, as the data file delimits them; those of the parent are GFTLNSYGIS, VIYSDGRRTFYGDSVK, GRAAGTFDS.
Variants here have more than six changes.
The Kd shown is the geometric mean over detected replicates; a lower Kd is a better binder.
Where no diploid with the target was found in any replicate, the entry reads "no signal": below detection, most likely a poor binder, though not proof of it.
A sequence measured in both rounds can read differently, since the two assays cover different ranges.

* GKSLDEYGIS | VIYADGKRTHYVENVK | GQFGGNLLD [En_Gibbs] = no signal (0 of 6 replicates; controls 0 of 18)
* GFDLDEYGIS | VIYADGMRTAYSDSVK | GENAGTFDI [En_Gen] = 270 pM (6 of 6 replicates; controls 0 of 18)
* GFDLNEYGIS | VIYADGRRTAYADSVK | GEVAGTFDI [En_Gen] = 250 pM (6 of 6 replicates; controls 1 of 18)
* GFSLDEYGIS | VIYADGRRTFYADSVK | GEAAGTFDI [En_HC] = 270 pM (6 of 6 replicates; controls 0 of 18)
* GFDLNEYGIS | VIYADGRRTAYRDSVK | GTNAGTFDQ [En_HC] = 2.9 nM (3 of 6 replicates; controls 0 of 18)
* GFDINEYGIS | VIYADGRRTFYTDSVK | GGNAGTFDA [En_HC] = 620 pM (6 of 6 replicates; controls 0 of 18)
* GFSLDEYGIS | VIYADGLRTQYSNKVK | GLQGFFFDQ [En_Gibbs] = no signal (0 of 6 replicates; controls 1 of 18)
* GFDLNEYGIS | VIYADGVRTAYADSVK | GTVAGTFDV [En_Gen] = 310 pM (6 of 6 replicates; controls 1 of 18)
* GFNLDEYGIS | VIYADGKRTFYADSVK | GQVAGTFDS [En_HC] = 240 pM (6 of 6 replicates; controls 1 of 18)
* GFDLNEYGIS | VIYADGMRTAYSDDVK | GNQAGTFDL [En_Gen] = 1.0 nM (6 of 6 replicates; controls 0 of 18)
* GFDLNEYGIS | VIYADGKRTAYADDVK | GETAGTFDV [En_Gen] = 1.1 nM (6 of 6 replicates; controls 0 of 18)
* GFDLDEYGIS | VIYADGVRTAYADNVK | GNVAGTFDL [En_Gen] = 210 pM (5 of 6 replicates; controls 0 of 18)
* GFDLDEYGIS | VIYADGMRTYYADSVK | GNVAGTFDV [En_Gen] = 1.1 nM (6 of 6 replicates; controls 0 of 18)
* GFDLNEYGIS | VIYADGRRTYYADSVK | GNQAGTFIL [En_HC] = 4.8 nM (6 of 6 replicates; controls 0 of 18)
* GKDLEEYGIS | VIYADGVRTSYLDQVK | GESGGAYYT [En_Gibbs] = no signal (0 of 6 replicates; controls 0 of 18)
* GFNLNEYGIS | VIYADGMRTFYTDSVK | GETAGTFVN [En_HC] = 800 pM (6 of 6 replicates; controls 0 of 18)
* GFDLNEYGIS | VIYADGVRTFYIDSVK | GTNAGTFDS [En_HC] = 220 pM (6 of 6 replicates; controls 0 of 18)
* GFDLNEYGIS | VIYADGRRSFYADSVK | GQTAGTFDS [En_HC] = 84 pM (6 of 6 replicates; controls 0 of 18)
* GFDLNEYGIS | VIYADGRRTFYIDSVK | GEIAGTFVV [En_HC] = 2.1 nM (6 of 6 replicates; controls 0 of 18)
* GFDLSEYGIS | VIYADGERANYVSNVK | GEQAGGFVL [En_Gibbs] = 66 nM (1 of 6 replicates; controls 0 of 18)
* GFDLNEYGIS | VIYADGIRQAYEDNVK | GRNIIGFLF [En_Gibbs] = no signal (0 of 6 replicates; controls 0 of 18)
* GFSLDEYGIS | VIYADGVRTQYHDSVK | GTGGFDIEL [En_Gibbs] = no signal (0 of 6 replicates; controls 0 of 18)
* GFDLDEYGIS | VIYADGMRTAYSDSVK | GTVAGTFDV [En_Gen] = 170 pM (6 of 6 replicates; controls 0 of 18)
* GFDLNEYGIS | VIYADGRRTAYTDSVK | GQNAGTFDM [En_HC] = 360 pM (6 of 6 replicates; controls 0 of 18)
* GFDLNEYGIS | VIYADGIRSRYANKVK | GNQAGTLLI [En_Gibbs] = no signal (0 of 6 replicates; controls 0 of 18)
* GFDLDEYGIS | VIYADGMRTVYADSVK | GNQAGTFDL [En_Gen] = 210 pM (6 of 6 replicates; controls 0 of 18)
* GFDLDEYGIS | VIYADGRRTFYQDSVK | GQNAGTFDQ [En_HC] = 150 pM (6 of 6 replicates; controls 0 of 18)
* GFDIEEFGIS | VIYADGQRLAYADEVK | GENAGSFDM [En_Gibbs] = 7.6 nM (6 of 6 replicates; controls 0 of 18)
* GFDLDEYGIS | VIYADGRRTAYIDSVK | GEVAGTFDV [En_Gen] = 500 pM (6 of 6 replicates; controls 0 of 18)
* GKSLDEYGIS | VIYADGLRMVYANSVK | GQSTDTLLL [En_Gibbs] = no signal (0 of 6 replicates; controls 1 of 18)
* GFDIEEYGIS | VIYADGRRTSYQNKVK | GRSGGIFNV [En_Gibbs] = 7.4 nM (6 of 6 replicates; controls 0 of 18)
* GFDLNEYGIS | VIYADGQRKFYADSVK | GENAGTFDV [En_HC] = 520 pM (6 of 6 replicates; controls 0 of 18)
* GFDLDEYGIS | VIYADGVRTAYADDVK | GENAGTFDV [En_Gen] = 820 pM (6 of 6 replicates; controls 0 of 18)
* GFDLNEYGIS | VIYADGIRTAYSDSVK | GNQAGTFDV [En_Gen] = 2.5 nM (6 of 6 replicates; controls 0 of 18)
* GFDLNEYGIS | VIYADGMRTAYIDSVK | GNVAGTFDI [En_Gen] = 250 pM (6 of 6 replicates; controls 1 of 18)
* GFDLNEYGIS | VIYADGKRTAYADDVK | GNTAGTFDQ [En_Gen] = 380 pM (6 of 6 replicates; controls 0 of 18)
* GFDLNEYGIS | VIYADGMRTAYADSVK | GEVAGTFDM [En_Gen] = 170 pM (6 of 6 replicates; controls 0 of 18)
* GFDLEDYGIS | VIYADGRRTFYADSVK | GEYAGTFDI [En_HC] = 620 pM (6 of 6 replicates; controls 1 of 18)
* GFDLNEYGIS | VIYADGRRTFYTDSVK | GEVAGTFDT [En_HC] = 330 pM (6 of 6 replicates; controls 0 of 18)
* GFDLNEYGIS | VIYADGMRTAYADDVK | GDNAGTFDV [En_Gen] = 350 pM (6 of 6 replicates; controls 0 of 18)
* GFDLNEYGIS | VIYADGKRTAYADSVK | GEVAGTFDQ [En_Gen] = 6.7 pM (6 of 6 replicates; controls 0 of 18)
* GQDLNEYGIS | VIYADGHRTMYANDVK | GKQGGIFED [En_Gibbs] = no signal (0 of 6 replicates; controls 0 of 18)
* GFDLNEYGIS | VIYADGVRTAYADKVK | GENAGTFDV [En_Gen] = 1.1 nM (6 of 6 replicates; controls 0 of 18)
* GFDLNEYGIS | VIYADGQRTAYADDVK | GQVAGTFDV [En_Gen] = 160 pM (6 of 6 replicates; controls 0 of 18)
* GFDLNEYGIS | VIYADGRRTAYADSVK | GNAAGTFNV [En_HC] = 240 pM (6 of 6 replicates; controls 1 of 18)
* GFDLNEYGIS | VIYADGMRQAYADSVK | GNVAGTFDT [En_Gen] = 480 pM (6 of 6 replicates; controls 0 of 18)
* GFDLNEYGIS | VIYADGKRTAYADSVK | GQVAGTFDT [En_Gen] = 240 pM (6 of 6 replicates; controls 0 of 18)
* GFDLNEYGIS | VIYADGRRTFYDDSVK | GQVAGTFDL [En_HC] = 280 pM (6 of 6 replicates; controls 0 of 18)
* GFDLDEYGIS | VIYADGLRTAYADSVK | GNQAGTFDV [En_Gen] = 1.0 nM (6 of 6 replicates; controls 0 of 18)
* GFDLNEYGIS | VIYADGRRTAYSDSVK | GETAGTFVQ [En_HC] = 3.0 nM (5 of 6 replicates; controls 1 of 18)
* GFTLNEYGIS | VEYNNGRRRFYTDSVK | GRFAGTFDS [Rand] = no signal (0 of 6 replicates; controls 1 of 18)
* GFDLNEYGIS | VIYADGVRTVYADSVK | GENAGTFDV [En_Gen] = 1.3 nM (6 of 6 replicates; controls 0 of 18)

Picked from the list: the 8 lowest averages where every replicate gave a value.

* GFDLNEYGIS | VIYADGKRTAYADSVK | GEVAGTFDQ [En_Gen] = 6.7 pM (6 of 6 replicates; controls 0 of 18)
* GFDLNEYGIS | VIYADGRRSFYADSVK | GQTAGTFDS [En_HC] = 84 pM (6 of 6 replicates; controls 0 of 18)
* GFDLDEYGIS | VIYADGRRTFYQDSVK | GQNAGTFDQ [En_HC] = 150 pM (6 of 6 replicates; controls 0 of 18)
* GFDLNEYGIS | VIYADGQRTAYADDVK | GQVAGTFDV [En_Gen] = 160 pM (6 of 6 replicates; controls 0 of 18)
* GFDLDEYGIS | VIYADGMRTAYSDSVK | GTVAGTFDV [En_Gen] = 170 pM (6 of 6 replicates; controls 0 of 18)
* GFDLNEYGIS | VIYADGMRTAYADSVK | GEVAGTFDM [En_Gen] = 170 pM (6 of 6 replicates; controls 0 of 18)
* GFDLDEYGIS | VIYADGMRTVYADSVK | GNQAGTFDL [En_Gen] = 210 pM (6 of 6 replicates; controls 0 of 18)
* GFDLNEYGIS | VIYADGVRTFYIDSVK | GTNAGTFDS [En_HC] = 220 pM (6 of 6 replicates; controls 0 of 18)

Empty control strains, which show no peptide, gave a signal in 1% of pairings with all heavy chain designs; the median was 120 nM and 95% of these signals were weaker than 7.0 nM. No background was subtracted. Also given: how often the same scFv was detected with the empty control strains.
The parent sequence was in this pool as ten entries: three were never detected, three once, and four in most replicates, with averages from 2.2 nM to 240 nM.
The authors' rule: three or more of the six replicates give a measured affinity, fewer mean a poor binder.